Earlier results on one substance are cited in patent US9963485B2, “Cycloheptapeptide agents for treatment of cancer and obesity diseases” (Hong Kong Baptist University, priority 2012, dated 2018).

The test system of this data set is murine P388 leukemia cells. As to conditions: read-out: Cytotoxic activity against murine P388 leukemia cells, IC50; literature (Feng et al. 2003); cited from earlier work.

Ternatin: the IC50 was 1.63 µM.
